Measured values taken from patent US20230219964A1, “ANTIBACTERIAL AND ANTIFUNGAL PLEUROMUTILIN CONJUGATES” (SYDDANSK UNIVERSITET, priority 2020, published 2023).
In brackets after ≈: the same amount, converted by molar mass.

Tests used:
Type in all cases: cell-based
[1] = tested on: E. faecalis cells; assay: MIC in vitro broth micro-dilution assay, E. faecalis; conditions: Enterococcus faecalis, read-out: in vitro susceptibility (MIC) E. Faecalis
Description: (§1) Bacterial susceptibility was established through an in vitro cell-based broth micro-dilution assay. To produce accurate and reproducible MIC-values, a procedure was used which follows the guidelines set by the Clinical and Laboratory Standards Institute (CLSI, USA) and the European Committee on Antimicrobial Susceptibility Testing (EUCAST). The micro-dilutions were carried out in 96-well plates, according to FIG. 3, wherein column 1 is a growth control, Columns 2 to 11 are dilutions of 1×, 2×, 4×, 8×, 16×, 32×, 64×, 128×, 256×, 512× respectively, and column 12 is a sterile control. To further increase the reliability of each susceptibility test, inoculation involved the use of three independent overnight cultures (ON1-ON3) thus giving rise to […]. Furthermore, each ON was added to two individual dilution rows, giving rise to biological duplicates. […]
(§2) 1.11 The optical density of bacterial cells in the ON culture was measured at wavelength 600 nm (OD600). […] 1.12 Then the OD600 was re-measured to make certain that it was between 0.08 and 0.13. […]
(§3) 1.18 Verification of standard inoculum: The 100× diluted culture of 1.13 was used to create 10^−1 to 10^−4 dilutions in PBS/0.9% saline (100 μl sample to 900 μl PBS, mix well and continue until 10^−4). […] 1.21 The plates were examined manually or by using the plate reader. […]

[2] = tested on: vancomycin-resistant enterococci (VRE) cells, VRE 1; assay: MIC in vitro broth micro-dilution assay, VRE 1; conditions: Enterococcus, read-out: in vitro susceptibility (MIC) VRE 1
Description: as §1, §2, §3

[3] = tested on: vancomycin-resistant enterococci (VRE) cells, VRE 5; assay: MIC in vitro broth micro-dilution assay, VRE 5; conditions: Enterococcus, read-out: in vitro susceptibility (MIC) VRE 5
Description: as §1, §2, §3

Molecule C=C[C@]1(C)C[C@@H](OC(=O)Cn2cc(-c3ccc(Cn4cnc5c(N6CCN(C)CC6)ncnc54)cc3)nn2)[C@]2(C)[C@H](C)CC[C@]3(CCC(=O)[C@H]32)[C@@H](C)[C@@H]1O [C3] has an MIC [1] of 0.25 µg/mL (≈ 0.34 µM), an MIC [2] of 0.12 to 0.25 µg/mL (≈ 0.163 to 0.34 µM) and an MIC [3] of 0.12 to 0.25 µg/mL (≈ 0.163 to 0.34 µM).
